## AlphaSeq binding of Ab-14 heavy chain variants to a spike HR2 peptide

Values reported by Li et al. 2023, doi:10.1038/s41467-023-39022-2 (FLAb copy).

All variants were tested on one target, the spike HR2 peptide PDVDLGDISGINAS (SARS-CoV-2).

Ab-14 is the parent antibody, in scFv form: VH, then a (GGGGS)3 linker, then VL. The light chain is unchanged in all variants.
VH: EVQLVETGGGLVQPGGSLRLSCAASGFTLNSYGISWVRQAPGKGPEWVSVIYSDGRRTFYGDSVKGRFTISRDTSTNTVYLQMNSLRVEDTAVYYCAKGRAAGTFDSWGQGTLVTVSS
VL: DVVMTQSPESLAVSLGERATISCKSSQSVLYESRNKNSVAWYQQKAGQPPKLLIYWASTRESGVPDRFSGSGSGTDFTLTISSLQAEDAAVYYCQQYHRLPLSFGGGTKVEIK

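These sequences belong to a second round, designed from the earlier measurements on random variants of the parent. Several design methods are mixed in this list. The scFvs were displayed on barcoded MATa yeast, the peptide on MATalpha yeast. After mating in shaken culture at 30 °C for 16 h, diploids were selected and their barcode pairs sequenced. A regression on co-assayed BCL2-family reference pairs converts the normalised counts of each replicate to an apparent Kd. The assay was run in six technical replicates.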

Positions count from residue 1 of the parent VH; F27N puts N in place of F.
Variants here have at most six changes.
The read-out is the apparent dissociation constant on a log10 scale (nM): the lower, the stronger.
"nd" means that the variant was in the library but no mating with the target was seen in that replicate; the authors take this as a sign of poor binding, and no number exists.

- F27N/S31E/G61T/A101T -> 1.87, 0.78, 0.92, 1.09, 1.26, 1.03
- T28N/G61A/S63M/A101Q -> 1.03, 2.14, nd, 2.41, nd, 1.88
- T28Q/S31Q -> 0.32, 0.40, 0.29, 0.67, -0.74, 0.82
- T28E/S31E/R100Q/S107V -> 1.13, 0.21, -0.06, 0.10, -0.08, 0.65
- S31R/S53F/G61S/A102G -> nd, nd, 1.28, nd, nd, nd
- T28E/G61S/S63Q/A101T -> 0.31, 0.12, 0.08, 0.08, -0.31, 0.40
- S53A/F59P/A102L/F105N/D106K -> nd, nd, nd, nd, nd, nd
- S31N/K65V/G99Q/R100W/S107K -> nd, nd, nd, nd, nd, nd
- S31Q/R56Q/G61S/R100Q -> -0.12, -0.02, -0.58, -0.02, -0.20, 0.06
- S53A/Y60H/G61H/F105N/D106K -> nd, nd, nd, nd, nd, nd
- T28P/S31E/R56K/A101T -> 0.17, 0.12, -0.11, -0.08, 0.01, 0.53
- T28E/G61A/S63Q/R100K/A101T -> 0.56, 0.53, 0.59, 0.18, 0.57, 0.27
- I34K/S53A/S63D/G99N/F105N/D106K -> 2.59, nd, nd, nd, nd, nd
- T28D/G61T/S63N/A101T -> 0.06, -0.01, 0.67, -0.51, -0.14, 0.09
- G26K/T28Q/S31D/G61A/A101T -> nd, nd, nd, nd, nd, nd
- T28N/S31E/S53A/G61A/R100E/A101N -> -0.23, -0.63, -0.43, -0.51, -0.43, -0.32
- R57S/G61S/A102I -> nd, nd, nd, nd, nd, nd
- G61A/A101E/D106E/S107T -> 0.73, 0.41, 0.35, 0.54, -0.19, 0.70
- T28E/R100Q/S107T -> 0.84, 0.72, 0.39, 0.23, 0.84, 1.03
- F59A/G61E/A102G/D106V -> nd, nd, nd, nd, nd, nd
- T28D/S31E/S107K -> 0.73, 0.00, -0.12, 0.92, -0.32, nd
- S31E/G61A/A101D -> -0.22, -0.11, 0.16, -0.39, -0.12, -0.14
- T28S/G61S/S63R/R100Q/A101T -> 0.45, 0.28, 0.50, 0.16, 0.02, 0.44
- N30E/S53A/S63D/D106K -> 2.42, 1.67, 1.94, 0.04, 1.60, nd
- R56E/G61A/R100Q -> 0.96, 1.99, nd, 0.40, 0.78, -0.06
- T28Q/A101T/S107T -> 0.42, 0.51, 0.33, 0.44, 0.06, 0.44
- R56K/G61I/A101D/A102K/D106S -> nd, nd, nd, nd, nd, 0.50
- R56C/F59A/S63Q/R100S -> 1.15, 1.84, 1.34, 2.60, 1.30, 1.48
- F27N/S31E/A101M/S107T -> 1.40, 1.38, 1.65, 1.95, 0.92, 1.45
- F27A/K65S/A101T -> nd, nd, 0.97, nd, nd, 1.44
- T28D/S31T/G61K/R100K -> 0.29, 0.07, -0.01, -0.18, -0.22, -0.19
- T28E/S53A/R100N -> 0.04, 0.31, -0.08, -0.30, -0.13, -0.10
- G26F/T28D/F59A/A101N -> 0.74, 0.24, 0.51, -0.11, 0.25, 0.78
- T28N/T104L/D106S/S107W -> nd, nd, nd, nd, nd, nd

For reference, 5 entries of the list once more:

changes	log10 Kd (nM) by replicate
S53A/F59P/A102L/F105N/D106K	nd, nd, nd, nd, nd, nd
T28D/G61T/S63N/A101T	0.06, -0.01, 0.67, -0.51, -0.14, 0.09
T28E/R100Q/S107T	0.84, 0.72, 0.39, 0.23, 0.84, 1.03
T28Q/S31Q	0.32, 0.40, 0.29, 0.67, -0.74, 0.82
T28E/S53A/R100N	0.04, 0.31, -0.08, -0.30, -0.13, -0.10

As a blank, each scFv also met three strains without target: over all heavy chain designs, 1% of these pairings were detected, typically at 2.08 and seldom below 0.84.
In the paper, a design with two or fewer of six values counts as a poor binder.
A sequence measured in both rounds can read differently, since the two assays cover different ranges.